The results in this text go back to PubChem BioAssay AID929 (National Center for Advancing Translational Sciences (NCATS), 2007).

Sequences of proteins named here, by UniProt entry; tags and fusion partners are left off. Residues count along the entry.
UniProt P29466, 120-297 limits assumed: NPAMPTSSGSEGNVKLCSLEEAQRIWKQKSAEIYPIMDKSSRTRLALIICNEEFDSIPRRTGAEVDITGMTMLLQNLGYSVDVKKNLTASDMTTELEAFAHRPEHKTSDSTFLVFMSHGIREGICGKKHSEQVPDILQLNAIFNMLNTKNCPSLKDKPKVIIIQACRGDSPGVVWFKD
UniProt P29466, 317-404 limits assumed: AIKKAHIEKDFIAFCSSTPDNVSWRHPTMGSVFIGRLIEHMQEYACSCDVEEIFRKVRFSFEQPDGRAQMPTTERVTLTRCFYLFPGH

The structures appear in SMILES notation. The entries are a selection whose mix differs from that of the whole data set. Inconclusive results are not listed. Active and inactive are the calls of the source. Calls come from the whole dose curve; as a rule, active = well fitted inhibition curve with a large enough effect in the main read-out, with a control signal flat; inconclusive = small, poorly fitted or top-dose-only effect, or a change in a side signal; inactive = no such curve, though single readings can be large or run the other way.

The experiment addresses Caspase-1 (Homo sapiens) (UniProt P29466). Nature of the experiment: Concentration-Response Counterscreen for Redox Active Inhibitors of Caspase-1: Cysteine. As to conditions: recombinant caspase-1, fluorogenic substrate, cysteine buffer; at 57.5 µM (top of the series). From the text: NIH Molecular Libraries Screening Centers Network [MLSCN]
NIH Chemical Genomics Center [NCGC]
PI Name: Dr. James Wells,
Dr. Enrique Perez-Paya, Dr.Janice Williams, Dr. Dennis Wolan, a person
The caspases (Cysteine Aspartyl Protease) comprise a related family of 14 dimeric proteases that are critical mediators of apoptosis (programmed cell death) and inflammation. The caspases represent an important class of drug targets for stroke, ischemia, cancer and inflammatory diseases. […] One goal of this project was to identify compounds that act as allosteric inhibitors via stabilizing the procaspase form of the enzyme. […]
The biochemical assay was configured using purified caspase 1 at a high enzyme concentration to promote formation of the homodimers and thus facilitate the identification of allosteric inhibitors. […] After initiation of the assay with substrate the plates were rapidly read using an automated robotic system (Kalypsys, Inc.) to maintain consistent timing. […] Product formation was also measured after 1 hour. […]
Caspase 1 was prepared in buffer (50 mM HEPES pH 7.5, 50 mM KCl, 200 mM NaCl, 10 mM Cys (Aldrich cat# 861677), 0.1% CHAPS) at a concentration of 66.6 nM and 3 uL was dispensed to all wells using black solid Kalypsys 1536-well plates. […] The plates were then exposed using 405 nm excitation/520 nm emission filters for 4 sec and read at 20 sec intervals for 3 min. […]
A general note: Counterscreens check selectivity or assay interference.
On to `C/C1=C2N=C(/C=C3N=C(/C(C)=C4\[N-][C@@](C)([C@H]5N=C1[C@@](C)(CCC(=O)NC[C@H](C)OP(=O)([O-])O[C@@H]1[C@H](O)[C@H](n6cnc7cc(C)c(C)cc76)O[C@@H]1CO)[C@@H]5CC(N)=O)[C@](C)(CC(N)=O)[C@H]4CCC(N)=O)[C@@](C)(CC(N)=O)[C@@H]\3CCC(N)=O)C(C)(C)[C@@H]/2CCC(N)=O.[C-]#N.[Co+3]`, for which the activity change, negative = inhibition was inactive: -21.7%.
